Data from article PMC8536600, “Ruxolitinib exposure in patients with acute and chronic graft versus host disease in routine clinical practice—a prospective single-center trial” (Cancer Chemotherapy and Pharmacology, 2021).
Where two headings read alike, the source gives them in different places.

What was measured:
[1] = cited from earlier work
[2] = Clinical and laboratory adverse events (CTCAE v5.0) in relation to Ruxolitinib trough serum concentration; assay type: in vivo, human
Method: Adverse events (AE) were registered by questioning patients at each sampling time point. Patients were specifically asked for AE occurring in ≥ 1/100 patients according to the prescribing information. Clinical AE were graded according to the […] (CTCAE) Version 5.0 [26]. Further recorded patient data included age, sex, height, weight, ethnicity, smoking status, dosing regimen, and comedication. Relevant laboratory parameters were recorded in parallel to blood sampling (estimated glomerular filtration rate (eGFR), serum creatinine, serum albumin, total cholesterol, total bilirubin, hemoglobin, white blood cell count, absolute neutrophil count, platelet count, aspartate, and alanine aminotransferase).
Data were collected and processed using Microsoft Excel 2016 Version 16.0 (Microsoft Corporation, Redmond, WA, USA). Statistical calculations and visualization of results were performed with R Studio Version 1.2.5042 (RStudio Incorporation, Boston, MA, USA) and running R version 4.0.5 (R Foundation for Statistical Computing, Vienna, Austria, 2020). To reduce bias caused by the unbalanced number of samples per patient, all Ruxolitinib trough serum concentrations of the same patient at the same dosage were summarized into an individual mean trough serum concentration for descriptive statistical analysis. […]

N#CC[C@H](C1CCCC1)n1cc(-c2ncnc3[nH]ccc23)cn1 [Ruxolitinib]
Median Css min ([1]; 33 samples of 19 patients, underlying disease and dosing regimen unknown): 11 ng/mL | Css min ([1]; eight healthy individuals, 30 mg daily): approximately 20 ng/mL | Css min ([1]; one MF patient, 5 mg daily): 15.8 ng/mL | Trough serum concentration threshold (optimal cut-off, Youden's Index) from ROC analysis ([2]; risk to experience at least 3 AE of CTCAE grade 1 or higher): 21.1 ng/mL | Odds ratio to experience at least three AE of any grade ([2]; trough concentrations above 21.1 ng/mL, 90% confidence interval 3.3-21.4): 8.8
